Test results reported in patent publication US20090318509A1, “Oxime Derivatives as Inhibitors of Macrophage Migration Inhibitory Factor” (priority 2006, published 2009).
pIC50: −log10 of the molar value.

Amino acid sequences for entries named in this document (tags omitted). Residues count along the entry.
UniProt P14174, 2-115 limits assumed: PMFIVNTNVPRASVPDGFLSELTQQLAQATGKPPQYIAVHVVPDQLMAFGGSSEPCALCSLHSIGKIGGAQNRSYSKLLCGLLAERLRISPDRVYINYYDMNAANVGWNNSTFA

Target: MIF (Homo sapiens, UniProt P14174)
Assay: MIF dopachrome tautomerase activity inhibition
Type: biochemical
Conditions: read-out: IC50 of MIF dopachrome tautomerase activity

pIC50: 6.05
SMILES: O=C(O/N=C/c1ccc(O)c(F)c1)C1CCCCC1
